This passage reports activity change, negative = inhibition results from PubChem BioAssay AID720533 (National Center for Advancing Translational Sciences (NCATS), 2013).

This is a selection; strong and weak results do not stand in their true shares. Some tests of the compounds listed are not included; inactive here does not mean inactive elsewhere. Records with an inconclusive call do not appear. Calls of active or inactive are those of the source. Calls come from the whole dose curve; tested in HEK293 cells.
% is set by controls: 0 for no effect and ±100 for the full control effect.

The nature of this assay: qHTS for Inhibitors of binding or entry into cells for Lassa Virus. The note with it: Lassa virus pseudotyped entry inhibition, cell-based qHTS; at 49.2 µM (top of the series). A general note: In qHTS, concentration-response curves come from the screen itself.
For the compound `CN1CCCC(OC(=O)C(O)(c2ccccc2)c2ccccc2)C1` (stereo unspecified), the activity change, negative = inhibition is inactive: -6.11%.
